Assay results as given in patent publication US20260191863A1, “PYRROLOPYRIMIDINE COMPOSITIONS FOR TREATMENT OF ITK MEDIATED CONDITIONS” (ACLARIS THERAPEUTICS, INC., priority 2022, published 2026).

Biological target: T1, ITK (Homo sapiens, UniProt Q08881)
T1 construct: (Jurkat/pPLCγ1); endogenous in cells; host or cells: Jurkat
T1 sequence (Q08881 1-620): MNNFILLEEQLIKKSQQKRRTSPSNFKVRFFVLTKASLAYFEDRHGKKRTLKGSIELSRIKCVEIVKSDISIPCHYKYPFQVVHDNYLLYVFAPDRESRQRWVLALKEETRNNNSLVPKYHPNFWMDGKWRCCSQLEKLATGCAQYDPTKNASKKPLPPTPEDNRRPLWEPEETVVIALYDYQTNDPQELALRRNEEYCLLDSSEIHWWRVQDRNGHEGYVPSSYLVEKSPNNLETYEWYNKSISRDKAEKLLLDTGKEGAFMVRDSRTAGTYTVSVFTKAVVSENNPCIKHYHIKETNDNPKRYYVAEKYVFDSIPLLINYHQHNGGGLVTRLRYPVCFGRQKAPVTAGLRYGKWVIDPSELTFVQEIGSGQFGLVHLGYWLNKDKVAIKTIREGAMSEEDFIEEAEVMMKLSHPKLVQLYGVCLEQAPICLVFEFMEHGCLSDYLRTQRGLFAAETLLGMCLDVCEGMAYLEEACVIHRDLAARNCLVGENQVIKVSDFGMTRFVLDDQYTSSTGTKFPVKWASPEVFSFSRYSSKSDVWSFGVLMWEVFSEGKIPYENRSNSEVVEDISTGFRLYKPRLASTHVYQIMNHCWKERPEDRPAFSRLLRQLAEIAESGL
Test: Cell IC50 ITK (Jurkat/pPLCγ1)
Type: cell-based
Settings: Jurkat, pPLCγ1

C=CC(=O)N1C[C@H](Nc2ncnc3[nH]ccc23)CC[C@@H]1C [Ritlecitinib, reference compound]
IC50: 652 nM
